For the test, the target named is TEAD1 (Homo sapiens, UniProt P28347). In words: TEAD1-Luciferase reporter assay (MCF-7 cell-based TEAD1-Luc assay). As to conditions: cells treated with compound overnight, luciferase chemiluminescence readout. As for the experimental part:
TEAD1-Luciferase Reporter Assay to Characterize the Pharmacological Properties of the Tead1 Covalent Inhibitors
FIG. 1 is a schematic illustration of the mechanism of TEAD1 inhibition by the disclosed compounds, which is the theoretical basis for the development of a TEAD-YAP/TAZ cell-based functional assay to characterize the pharmacological properties of the synthesized inhibitor compounds. The MCF-7 cell-based TEAD1-Luc assay for the IC50 measurement was performed as below. Compounds 2, 4, 5, and 7, representing different chemical scaffolds, were characterized. About 200 μL of culture medium was placed in each of the 10^4 cell/well in a 96-well plate. The next day the cells were treated with the synthesized compounds for overnight. The luciferase activity was measured with a chemiluminescent assay kit. Specifically, the plate was equilibrated at room temperature. […] and 50 μL of the medium was left inside. To each well was added 50 μL Luciferase reagents. The plates were gently rocked for more than about 15 minutes at room temperature. The luminescence signal was then read and recorded. Table 2 below summarizes the measured IC50 values for the disclosed compounds.
(In general: A reporter such as luciferase makes a cellular process visible.)

By UniProt entry, the sequences of proteins in these tests, tags left out.
UniProt P28347, whole entry: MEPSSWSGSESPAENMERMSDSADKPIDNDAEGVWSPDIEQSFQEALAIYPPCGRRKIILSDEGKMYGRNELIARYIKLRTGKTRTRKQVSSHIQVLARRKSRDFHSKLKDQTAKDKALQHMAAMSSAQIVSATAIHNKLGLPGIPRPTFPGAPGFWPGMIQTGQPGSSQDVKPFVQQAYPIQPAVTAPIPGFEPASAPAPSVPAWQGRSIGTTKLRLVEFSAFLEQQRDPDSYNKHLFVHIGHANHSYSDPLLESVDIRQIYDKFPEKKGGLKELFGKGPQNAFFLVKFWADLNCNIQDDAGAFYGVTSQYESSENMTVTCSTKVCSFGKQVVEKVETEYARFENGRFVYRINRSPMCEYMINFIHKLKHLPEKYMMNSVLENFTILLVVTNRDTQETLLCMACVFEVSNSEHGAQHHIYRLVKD

With `C=CC(=O)N1CC(OCc2cccc(C(F)(F)F)c2)C1`, the IC50 (usually the concentration needed to halve the response being measured) was less than 100 nM.

The record behind these values is US12583815B2, “Inhibitors of YAP/TAZ-TEAD oncoproteins, synthesis and use thereof” (BRIDGENE BIOSCIENCES, INC., priority 2020, dated 2026).
